Literature values in patent publication US5652334A, “Method for design of substances that enhance memory and improve the quality of life” (City of Hope, priority 1993, dated 1997).

Tested on: CD-1 male mice
Conditions: post-training ICV; references 1 and 12; cited from earlier work

Substance	amnestic effect on retention of FAAT (earlier publications)
Val His His Gln Lys Leu Val Phe Phe (VHHQKLVFF) [β-(12-20)]	amnestic
Val His His Gln Lys Leu Val Phe Phe Ala Glu Asp Val Gly Ser Ash Lys (VHHQKLVFFAEDVGSNK) [β-(12-28)]	amnestic
